Laboratory results published in paper PMC6000670, “Dihydropyridines Allosterically Modulate Hsp90 Providing a Novel Mechanism for Heat Shock Protein Co-induction and Neuroprotection” (Frontiers in Molecular Biosciences, 2018).

Assay: Solubility in buffer
Settings: 50 mM in 20 mM Tris pH7.5, 1 mM EDTA, 5 mM NaCl

In the case of COC(=O)C1=C(CCN(C)C)N(C)C(CCN(C)C)=C(C(=O)OC)C1c1ccc(C(F)(F)F)cc1 [LA1011], the solubility is reported as “soluble”.
In the case of COC(=O)C1=C(C)N(C)C(CCN2CCOCC2)=C(C(=O)OC)C1c1ccc(C(F)(F)F)cc1 (stereo not drawn) [LA1014], the solubility is reported as “soluble”.
For COC(=O)C1=C(CCN(C)C)N(C)C(CCN(C)C)=C(C(=O)OC)C1c1cc(F)cc(F)c1 [LA1026], the solubility was “soluble”.
